Two compounds from US4505932A, “Method of producing α2 -adrenergic receptor agonist activity” (Abbott Laboratories, priority 1984, dated 1985) can be followed below.

Protein sequences, listed by entry. Tags and fused reporters are not part of them.
UniProt P15823, whole entry: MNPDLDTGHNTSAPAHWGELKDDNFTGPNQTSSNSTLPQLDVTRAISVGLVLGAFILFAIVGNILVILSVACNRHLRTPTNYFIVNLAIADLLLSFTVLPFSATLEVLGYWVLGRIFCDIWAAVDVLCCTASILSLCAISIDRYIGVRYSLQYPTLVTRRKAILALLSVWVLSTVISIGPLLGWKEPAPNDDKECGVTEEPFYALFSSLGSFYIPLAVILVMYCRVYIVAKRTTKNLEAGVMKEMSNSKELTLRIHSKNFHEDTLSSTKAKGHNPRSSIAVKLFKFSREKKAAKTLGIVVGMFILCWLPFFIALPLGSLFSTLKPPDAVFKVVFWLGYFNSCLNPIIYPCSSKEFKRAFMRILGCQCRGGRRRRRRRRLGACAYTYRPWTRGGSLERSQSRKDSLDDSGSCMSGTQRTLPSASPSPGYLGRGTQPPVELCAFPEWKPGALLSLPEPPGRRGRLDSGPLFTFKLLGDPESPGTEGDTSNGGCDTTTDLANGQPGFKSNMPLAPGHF

One assay relates to α2 -adrenergic receptors. The format is binding. The conditions noted are these: selectivity ratio, rat liver α1 vs rat brain cortex α2.
A further assay addresses T1, α1 -adrenergic receptors (Rattus norvegicus, UniProt P15823).
T1 construct: from tissue; host or cells: rat liver
The assay is described as follows: radioligand binding, [3H] prazosin displacement in rat liver.

As for `CNC[C@H](O)c1ccc(O)c(O)c1` [Epinephrine, epinephrine, reference compound], the KIα1/KIα2 with α2 -adrenergic receptors was determined as 5. For the same compound, on α1 -adrenergic receptors, the Ki is 0.286 µM. On to `Clc1cccc(Cl)c1N=C1NCCN1` [Clonidine, clonidine, reference compound], for which the Ki on α1 -adrenergic receptors turned out to be 0.648 µM.
